Apparent affinities of Ab-14 variants for a coronavirus HR2 peptide

From the AlphaSeq antibody data of Engelhart et al. 2022 (doi:10.1038/s41597-022-01779-4), copy in the FLAb collection.

The target is the same throughout: PDVDLGDISGINAS, from the HR2 region of SARS-CoV-2 spike.

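Variants in AAYL49 differ from the parent at up to three CDR positions; double and triple changes were sampled at random. In AlphaSeq, yeast of one mating type display the scFv and yeast of the other type display the target. After mating in shaken culture at 30 °C for 16 h, diploids were selected and their barcode pairs sequenced. The ratio of observed to expected reads was calibrated, replicate by replicate, on BCL2-family standards whose Kd was known from biolayer interferometry. Mating was done three times.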

Parent scFv Ab-14: VH joined to VL by the linker GGGGSGGGGSGGGGS. Changes lie in the heavy chain CDRs alone.
VH: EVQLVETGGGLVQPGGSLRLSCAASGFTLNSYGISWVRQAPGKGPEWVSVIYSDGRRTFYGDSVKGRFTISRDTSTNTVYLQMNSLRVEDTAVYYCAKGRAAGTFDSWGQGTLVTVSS
VL: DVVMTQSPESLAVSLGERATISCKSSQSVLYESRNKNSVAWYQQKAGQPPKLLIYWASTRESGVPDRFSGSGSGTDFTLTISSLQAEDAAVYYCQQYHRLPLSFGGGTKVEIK

Changes read parent residue, position, new residue, counted from the first residue of the VH shown.
Affinities are written as log10 Kd with Kd in nM; a lower number is a better binder.
An entry "ND" has no value in the source: the pair was not observed among the diploids in that replicate. This suggests poor binding but is not conclusive.

| # | changes | log10 Kd, replicates | empty controls |
|---|---|---|---|
| 1 | I34N/G103V/D106Y | ND ND ND | 3/9 (4.55) |
| 2 | Y32F/I51S/D62A | ND ND ND | 2/9 (4.31) |
| 3 | F59Q/Y60M/G103S | ND ND ND | 1/9 (1.64) |
| 4 | G26W/T28D/S107F | 2.61 2.53 3.65 | 4/9 (4.09) |
| 5 | T28E/N30V/R100N | 1.62 2.08 2.89 | 1/9 (3.45) |
| 6 | Y32G/S35L/D54N | ND ND 5.36 | 2/9 (4.41) |
| 7 | G99Q | ND ND ND | 0/9 |
| 8 | I34T/F105Q | ND ND ND | 0/9 |
| 9 | I34S/Y52A/T58H | 6.13 3.51 ND | 4/9 (4.07) |
| 10 | V50F/R56V/T58A | ND ND ND | 1/9 (4.13) |
| 11 | G61C/S63M/T104D | 2.90 2.38 3.67 | 2/9 (3.64) |
| 12 | T28Y/L29T/D62Q | 5.52 4.14 ND | 2/9 (4.34) |
| 13 | G61C/G103S/S107R | ND ND ND | 0/9 |
| 14 | I34F/D54Y/G55T | ND ND ND | 3/9 (4.35) |
| 15 | D62W/K65P/R100N | ND ND ND | 0/9 |
| 16 | F27I/I51R/G55D | ND ND ND | 1/9 (4.19) |
| 17 | T28W/S31F/S35C | ND 2.95 ND | 0/9 |
| 18 | G33V/I34F/S35Y | ND ND ND | 0/9 |
| 19 | N30I/S31G/V64D | ND ND ND | 0/9 |
| 20 | V50L/D106W | 4.25 ND ND | 3/9 (4.03) |
| 21 | N30G/K65T/G103P | 3.70 ND ND | 3/9 (5.05) |
| 22 | I34H/R56C/G99Y | ND ND ND | 0/9 |
| 23 | Y52A/T58Y/D106M | ND ND 5.35 | 0/9 |
| 24 | S31G/T58E/G61V | 1.98 1.77 ND | 1/9 (3.45) |
| 25 | I51S/G99L/F105N | ND 3.28 ND | 0/9 |
| 26 | G26M/I34F/Y60W | 5.22 3.56 6.29 | 9/9 (4.96) |
| 27 | G99L/T104A/D106V | ND ND ND | 0/9 |
| 28 | F59R/R100G/F105Q | 5.42 ND ND | 3/9 (4.15) |
| 29 | S35K/Y52H/F59V | ND ND ND | 0/9 |
| 30 | T28D/T104W | ND ND ND | 1/9 (4.22) |
| 31 | Y52T/A102W/S107G | 4.12 ND 4.61 | 5/9 (4.36) |
| 32 | F27P/R100F/A102R | ND ND ND | 0/9 |

Excerpt, the final 3 entries:

{"changes": "T28D/T104W", "log10 Kd, replicates": "ND ND ND", "empty controls": "1/9 (4.22)"}
{"changes": "Y52T/A102W/S107G", "log10 Kd, replicates": "4.12 ND 4.61", "empty controls": "5/9 (4.36)"}
{"changes": "F27P/R100F/A102R", "log10 Kd, replicates": "ND ND ND", "empty controls": "0/9"}

Background: pairings of library AAYL49 with three empty control strains gave a value in 15% of cases (median 4.06, 5th percentile 2.83). Values in that range, when seen in few replicates, are hard to tell from nonspecific mating. For each scFv, signals with the empty controls are counted beside the result, with their mean in brackets.